Experimental data reported in patent US12005056B2, “Centrally-active ghrelin agonist and medical uses thereof” (Helsinn Healthcare SA, priority 2018, dated 2024).

Test system: oxaliplatin-treated Balb/C mice
Conditions: oxaliplatin 6 mg/kg i.p. twice weekly for 4 weeks

O=C1[O][Pt]2([NH][C@@H]3CCCC[C@H]3[NH]2)[O]C1=O [Oxaliplatin, reference compound]
decrease in digital NCV vs. vehicle-treated mice: 10.6±1.6%
